Laboratory results as given in patent US10655130B2, “Modulation of breast cancer growth by modulation of XBP1 activity” (Cornell University, priority 2012, dated 2020).

Test system: MDA-MB-231 xenograft tumors
Details: treatment every 5 days, from day 15 until day 30

## COc1cccc2c1C(=O)c1c(O)c3c(c(O)c1C2=O)C[C@@](O)(C(=O)CO)C[C@@H]3O[C@H]1C[C@H](N)[C@H](O)[C@H](C)O1 [doxorubicin]
  tumor growth: suppressed tumor growth
